The list is not random: actives were taken first. Their share in the collection is about 1.6%.
CAL PDZ FP-1 – CAL PDZ peptide-binding inhibitors, primary screen, biochemical, fluorescence polarization, Cer-tagged CAL PDZ, HTS | purified CAL PDZ, TMR-peptide fluorescence polarization, 1 h | inhibition, % at 20 µM | 330,000 tested, 0.02% active;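 active = highest replicate inhibition of at least 40%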;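 note: plate controls were DMSO neutral control wells for no effect and unlabeled competitor peptide control wells for full effect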
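Test system: purified CerCALP PDZ construct; Compound dosing: one concentration, 20 µM compound; Also added: TMR-labelled reporter peptide T*-PRC34 bound in PDZ groove; Read-out: inhibition from polarization loss; Controls: unlabelled peptide and DMSO controls; Signal: FP readout, S and P plane fluorescence; Incubation: 1 h at RT.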
Yeast UUG start – yeast start codon fidelity modulation | S. cerevisiae UUG-firefly luciferase reporter, luminescence/redox ratio | activity score, % at 18.7 µM | hit rate 0.13% among 350,000 | AID 602363;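 active means replicate mean at a twofold rise or more, about +100% in these data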;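 further: firefly luciferase made from a UUG start codon reports start codon fidelity; reporter light over untreated wells divided by growth signal over untreated wells; some hits fall short of that in this replicate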
ARNT-TACC3 inh – disruptors of ARNT/TACC3 protein interaction, primary screen, biochemical, AlphaScreen, single concentration. AlphaScreen His-ARNT PAS-B/GST-TACC3 binding, luminescence; TACC3 fragment carries E629A point mutation. Transforming acidic coiled-coil-containing protein 3 (Homo sapiens), Q9Y6A5. 390,000 tested, 0.66% active. AID 623870, 2012. inhibition, % at 9.99 µM;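 active = mean inhibition of replicates at least 50% and at least half of replicates each reaching 50%; inconclusive = half or more replicates reach 50% but mean below 50%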;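 note: 0% = complete ARNT plus TACC3 wells and 100% = ARNT alone without TACC3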
PglD DTNB – C. jejuni PglD acetyltransferase inhibitors, primary screen, biochemical, DTNB colorimetric, single point | UDP-N-acetylbacillosamine N-acetyltransferase PglD (Campylobacter jejuni) | purified PglD enzyme, DTNB colorimetric CoA detection | inhibition, % at 12.5 µM | 360,000 tested, 0.098% active | AID 602405, 2012; in the data active = inhibition above about 16%, passing the limit was not always enough; inconclusive = no clear call, values can overlap the other calls
CAL PDZ FP-2 – untagged CAL PDZ binding inhibitors, primary screen, biochemical, fluorescence polarization, HTS; AID 602252, 2012; Golgi-associated PDZ and coiled-coil motif-containing protein (Homo sapiens), Q9HD26; purified CAL PDZ, TMR-peptide fluorescence polarization, 1 h; 300,000 tested, 0.92% active; inhibition, % at 24.9 µM;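 active = mean inhibition of at least 30% with at least half of replicates also reaching 30%; inconclusive = no clear call, values can overlap the other calls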;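 note: 0% = DMSO neutral control and 100% = excess unlabeled competitor peptide PRC23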
Vif imaging – HIV Vif self-association inhibitors, primary screen, imaging, HEK293T, single point. inhibition, % at 7.49 µM. 340,000 tested, 0.35% active. HEK293T cells, Vif self-association by quenched fluorescence, 24 h; in the data active = inhibition above about 50%, passing the limit was not always enough; inconclusive = no clear call, values can overlap the other calls; inactive = below about 31%
The depositor's hits bear a star; ? = inconclusive; nt = no result given.

A first look:
No. | CAL PDZ FP-2 | Vif imaging | ARNT-TACC3 inh | Yeast UUG start | CAL PDZ FP-1 | PglD DTNB | smiles
1 | 41.8* | 20.2 | 9.8 | -8.3 | -0.7 | -1.6 | COc1cc(/C=N/Nc2ccc(Cl)c(C(=O)O)c2)ccc1OC(=O)c1ccccc1F
2 | -3.2 | -10.6 | 5.2 | 11.6 | -0.6 | 0.3 | COc1cc(/C=N/Nc2ccc(Cl)c(C(=O)O)c2)ccc1OC(=O)c1ccc(F)cc1

The list itself (from the top)
No. | CAL PDZ FP-2 | Vif imaging | ARNT-TACC3 inh | Yeast UUG start | CAL PDZ FP-1 | PglD DTNB | smiles
1 | 41.8* | 20.2 | 9.8 | -8.3 | -0.7 | -1.6 | COc1cc(/C=N/Nc2ccc(Cl)c(C(=O)O)c2)ccc1OC(=O)c1ccccc1F
2 | -3.2 | -10.6 | 5.2 | 11.6 | -0.6 | 0.3 | COc1cc(/C=N/Nc2ccc(Cl)c(C(=O)O)c2)ccc1OC(=O)c1ccc(F)cc1
3 | nt | nt | 23.1 | nt | nt | -1.5 | O=C(C[C@@H]1C=C[C@H](NC(=O)c2ccccc2)[C@@H](CO)O1)NCc1ccc(Oc2ccccc2)cc1
4 | -3.1 | 20.0 | -2.4 | -16.6 | -0.7 | 4.6 | C=CCOC(=O)C1=C[C@@H](c2ccc(C(F)(F)F)cc2)C[C@@H](OCCCCO)O1
5 | -2.0 | 51.3* | 1.9 | 7.8 | -0.5 | 1.0 | C=CCOC(=O)C1=C[C@@H](c2ccc(Br)cc2)C[C@@H](OCCCCO)O1
6 | 174.1* | 17.0 | -2.1 | -9.9 | -0.8 | 1.6 | O=C(c1ccccc1)C1N=NCC1c1ccc(Cl)cc1 (stereo not drawn)
7 | nt | 2.0 | -2.8 | nt | -0.8 | nt | CCOC(=O)C1=NNC(C(=O)c2ccccc2)C1c1ccc(Cl)cc1 (stereo not drawn)
8 | -5.2 | -0.2 | 28.3 | 5.0 | -1.3 | 2.1 | Cc1ccccc1NC(=O)Cn1c(=O)oc2ccccc21
9 | 4.4 | 2.8 | 0.1 | -4.7 | -0.5 | -4.7 | Cc1ccc(NC(=O)CCCn2c(=O)oc3ccccc32)c(O)c1
10 | 56.1* | -1.4 | -6.9 | -1.1 | -0.8 | -4.8 | COc1ccc(C)cc1NC(=O)Cn1c(=O)oc2ccccc21
11 | 48.5* | 14.1 | 4.2 | nt | -0.7 | nt | Cc1ccc(NC(=O)CCn2c(=O)oc3ccccc32)c(C)c1
12 | -0.1 | 1.1 | 63.8* | -20.7 | 0.4 | -0.6 | c1ccc(-c2nc3ccccn3c2NC2CCCC2)nc1

Rewritten as tab-separated lines: entries from further up.
#	SMILES	CAL PDZ FP-2	Vif imaging	ARNT-TACC3 inh	Yeast UUG start	CAL PDZ FP-1	PglD DTNB
1	COc1cc(/C=N/Nc2ccc(Cl)c(C(=O)O)c2)ccc1OC(=O)c1ccccc1F	41.8*	20.2	9.8	-8.3	-0.7	-1.6
2	COc1cc(/C=N/Nc2ccc(Cl)c(C(=O)O)c2)ccc1OC(=O)c1ccc(F)cc1	-3.2	-10.6	5.2	11.6	-0.6	0.3

Later entries
No. | CAL PDZ FP-2 | Vif imaging | ARNT-TACC3 inh | Yeast UUG start | CAL PDZ FP-1 | PglD DTNB | smiles
13 | 42.2* | -11.9 | -1.6 | -8.0 | -1.5 | 4.2 | CC(O)c1cccc(-c2ccc(CN3C[C@]4(CO)O[C@@H](CO)C[C@@H]4S3(=O)=O)cc2)c1 (stereo partly drawn)
14 | -1.8 | 0.4 | 40.8* | nt | 2.1 | nt | Cc1cc(-c2ccc(F)cc2)nc2cc(C(N)=O)nn12
15 | nt | nt | nt | -27.7 | nt | -2.3 | Cc1cc(C)n2nc(-c3ccc(F)cc3)cc2n1
16 | nt | 1.5 | 9.3 | 5.5 | 0.4 | -1.0 | CC(c1ccccc1)N1C(=O)c2cccnc2C1=O (stereo not drawn)
17 | -6.9 | 1.9 | 47.4* | nt | 1.3 | nt | CC(NC1=CC(=O)c2cccnc2C1=O)C(O)c1ccccc1 (stereo not drawn)
18 | -0.3 | 2.9 | 60.8* | -13.4 | -2.7 | 2.1 | O=[N+]([O-])C(=C1Nc2ccccc2N1)/C(Cl)=C(/Cl)Br
19 | 3.5 | -3.4 | nt | -7.3 | -0.5 | -11.5 | CN1CCN(CCC(=O)N/N=C/c2cc([N+](=O)[O-])ccc2OC(F)F)CC1
20 | 162.6* | 0.4 | 2.8 | -4.9 | 1.0 | 6.2 | CC1CCN(CCC(=O)N/N=C/c2ccc([N+](=O)[O-])cc2)CC1
21 | 67.0* | -4.0 | -3.4 | -0.3 | -0.6 | -0.5 | Cc1c(OC(C)C(=O)NCCN2CCOCC2)ccc2c3c(c(=O)oc12)CCCC3 (stereo not drawn)
22 | -1.1 | 8.2 | -2.4 | nt | -2.8 | nt | Cc1cc(=O)oc2c(C)c(OC(C)C(=O)NCCN3CCOCC3)ccc12 (stereo not drawn)
23 | nt | nt | -13.4 | nt | nt | -3.1 | Cc1noc(C)c1NC(=O)N(C)C[C@@H]1OCc2ccccc2-c2ccccc2C(=O)N([C@H](C)CO)C[C@H]1C
24 | -2.0 | 100.0* | -5.5 | nt | -2.0 | nt | CCc1ccc(-c2nc(CCl)cs2)cc1
25 | nt | 1.5 | -0.4 | nt | -0.5 | nt | COc1ccc(-c2nc(CCl)cs2)cc1
26 | nt | nt | -9.5 | -2.5 | nt | -6.0 | O=C(C[C@@H]1C[C@@H]2c3cc(NC(=O)c4ccc5c(c4)OCO5)ccc3O[C@@H]2[C@@H](CO)O1)NC1CCCC1
27 | 47.2* | -3.2 | -9.2 | -29.7 | 18.8 | -1.2 | Cc1ccccc1NC(=S)N(Cc1ccco1)C(C)c1cccs1 (stereo not drawn)
28 | -3.5 | 51.3* | 0.4 | -24.5 | 0.3 | 2.4 | Cc1ccccc1NC(=S)N(Cc1cccs1)C1CCCC1
29 | -2.1 | -1.4 | 0.6 | nt | -0.5 | nt | Cc1cccc(C)c1NC(=S)N(Cc1cccs1)C1CCCC1
30 | nt | nt | -0.9 | -20.4 | nt | -0.1 | CN1c2ccc(C3=CCCCC3)cc2[C@@H]2[C@@H](CCN2S(=O)(=O)c2ccccc2)[C@@H]1CO
31 | nt | nt | -8.1 | 3.5 | nt | 1.6 | COc1ccc(NC(=O)Nc2ccc3c(c2)C(=O)N([C@H](C)CO)C[C@@H](C)[C@@H](CN(C)S(=O)(=O)c2ccc(Cl)cc2)O3)cc1
32 | -1.4 | -6.1 | nt | -11.3 | -0.3 | 2.7 | CCc1ccc(C(c2ccc(CC)cc2)C(Cl)Cl)cc1
33 | 0.1 | -4.3 | 48.2* | -17.4 | 0.8 | 1.0 | Clc1ccc(C(c2ccccc2Cl)C(Cl)Cl)cc1 (stereo not drawn)
34 | -4.7 | -4.4 | 1.0 | 8.5 | -0.2 | 16.2 | Cc1cc(NC(=O)CCC(=O)N(Cc2ccco2)C(C(=O)NC2CCCC2)c2ccccc2C)no1 (stereo not drawn)
35 | 39.1* | ? | -2.7 | -2.9 | -1.1 | 4.9 | Cc1cc(NC(=O)CCC(=O)N(Cc2ccco2)C(C(=O)NC2CCCCC2)c2ccccc2)no1 (stereo not drawn)
36 | -9.0 | 16.5 | -8.2 | -2.4 | -0.1 | -3.7 | COc1cccc(-n2c(=O)c3ccccc3n(CC(=O)NCC3CCCO3)c2=O)c1 (stereo not drawn)
37 | 38.5* | -8.5 | 3.5 | -9.6 | -2.8 | 1.8 | COc1cccc(-n2c(=O)c3sccc3n(CC(=O)NCC3CCCO3)c2=O)c1 (stereo not drawn)
38 | 2.6 | 50.0* | -2.0 | -19.0 | -2.5 | 0.9 | CCOCCCn1c(=N)c(S(=O)(=O)c2ccc(C)cc2)cc2c(=O)n3cc(C)ccc3nc21
39 | 1.8 | 0.7 | 0.3 | -15.1 | -0.1 | -9.1 | Cc1ccc2nc3c(cc(S(=O)(=O)c4ccccc4)c(=N)n3Cc3ccco3)c(=O)n2c1
40 | nt | nt | -6.5 | -7.9 | nt | -1.1 | C[C@H]1CN([C@@H](C)CO)C(=O)c2cc(NS(C)(=O)=O)ccc2O[C@H]1CN(C)Cc1ccc(C(=O)O)cc1
41 | nt | nt | -24.4 | 6.4 | nt | -0.3 | Cc1ccc(S(=O)(=O)Nc2ccc3c(c2)CC(=O)N([C@@H](C)CO)C[C@H](C)[C@H](CN(C)S(=O)(=O)c2ccc(C)cc2)O3)cc1
42 | -3.9 | 55.3* | -11.7 | nt | -1.4 | nt | COCCNc1oc(/C=C/c2ccccc2)nc1C#N
43 | 35.9* | 2.1 | -14.6 | nt | 0.1 | nt | N#Cc1nc(/C=C/c2ccccc2)oc1NCCCN1CCOCC1

Random excerpt: 2 compounds from above.
No. | CAL PDZ FP-2 | Vif imaging | ARNT-TACC3 inh | Yeast UUG start | CAL PDZ FP-1 | PglD DTNB | smiles
30 | nt | nt | -0.9 | -20.4 | nt | -0.1 | CN1c2ccc(C3=CCCCC3)cc2[C@@H]2[C@@H](CCN2S(=O)(=O)c2ccccc2)[C@@H]1CO
13 | 42.2* | -11.9 | -1.6 | -8.0 | -1.5 | 4.2 | CC(O)c1cccc(-c2ccc(CN3C[C@]4(CO)O[C@@H](CO)C[C@@H]4S3(=O)=O)cc2)c1 (stereo partly drawn)
